ChEMBL document CHEMBL1777745, “Non-oxime pyrazole based inhibitors of B-Raf kinase” (Bioorg Med Chem Lett, 2011)

The chains behind the UniProt entries cited, without tags or fusion partners.
UniProt P15056, whole entry: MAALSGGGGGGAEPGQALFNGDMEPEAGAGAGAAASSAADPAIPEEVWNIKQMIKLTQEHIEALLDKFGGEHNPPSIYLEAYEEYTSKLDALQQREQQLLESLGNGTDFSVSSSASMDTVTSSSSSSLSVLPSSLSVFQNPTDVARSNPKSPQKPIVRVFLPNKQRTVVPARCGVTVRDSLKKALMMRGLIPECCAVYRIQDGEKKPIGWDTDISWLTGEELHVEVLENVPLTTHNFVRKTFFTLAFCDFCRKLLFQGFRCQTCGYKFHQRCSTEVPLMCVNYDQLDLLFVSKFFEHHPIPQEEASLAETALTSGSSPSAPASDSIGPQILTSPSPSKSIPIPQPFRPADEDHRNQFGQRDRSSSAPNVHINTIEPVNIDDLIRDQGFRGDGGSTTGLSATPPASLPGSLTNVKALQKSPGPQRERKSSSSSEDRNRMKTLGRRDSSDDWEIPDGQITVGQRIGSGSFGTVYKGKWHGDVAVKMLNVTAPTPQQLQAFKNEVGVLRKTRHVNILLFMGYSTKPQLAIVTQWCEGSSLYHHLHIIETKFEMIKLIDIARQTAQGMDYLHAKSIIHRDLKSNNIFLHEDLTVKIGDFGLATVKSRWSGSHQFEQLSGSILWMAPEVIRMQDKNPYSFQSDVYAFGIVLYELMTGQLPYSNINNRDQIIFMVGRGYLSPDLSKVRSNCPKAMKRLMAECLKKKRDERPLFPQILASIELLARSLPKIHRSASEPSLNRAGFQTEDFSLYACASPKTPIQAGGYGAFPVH

Biological target: Serine/threonine-protein kinase B-raf (Homo sapiens, UniProt P15056)
Experiment: Inhibition of B-Raf

- IC50: 3 nM
Structure (SMILES): c1cc(-c2nn(C3CCNCC3)cc2-c2ccc3c(c2)Cc2c[nH]nc2-3)ccn1
